# Experimental data taken from PubChem BioAssay AID1224864 (Chung Lab, Department of Pediatrics, Emory University, 2016).
# Protein sequences, listed by entry. Tags and fused reporters are not part of them.
# UniProt P13569, whole entry, looked up, stated change not applied: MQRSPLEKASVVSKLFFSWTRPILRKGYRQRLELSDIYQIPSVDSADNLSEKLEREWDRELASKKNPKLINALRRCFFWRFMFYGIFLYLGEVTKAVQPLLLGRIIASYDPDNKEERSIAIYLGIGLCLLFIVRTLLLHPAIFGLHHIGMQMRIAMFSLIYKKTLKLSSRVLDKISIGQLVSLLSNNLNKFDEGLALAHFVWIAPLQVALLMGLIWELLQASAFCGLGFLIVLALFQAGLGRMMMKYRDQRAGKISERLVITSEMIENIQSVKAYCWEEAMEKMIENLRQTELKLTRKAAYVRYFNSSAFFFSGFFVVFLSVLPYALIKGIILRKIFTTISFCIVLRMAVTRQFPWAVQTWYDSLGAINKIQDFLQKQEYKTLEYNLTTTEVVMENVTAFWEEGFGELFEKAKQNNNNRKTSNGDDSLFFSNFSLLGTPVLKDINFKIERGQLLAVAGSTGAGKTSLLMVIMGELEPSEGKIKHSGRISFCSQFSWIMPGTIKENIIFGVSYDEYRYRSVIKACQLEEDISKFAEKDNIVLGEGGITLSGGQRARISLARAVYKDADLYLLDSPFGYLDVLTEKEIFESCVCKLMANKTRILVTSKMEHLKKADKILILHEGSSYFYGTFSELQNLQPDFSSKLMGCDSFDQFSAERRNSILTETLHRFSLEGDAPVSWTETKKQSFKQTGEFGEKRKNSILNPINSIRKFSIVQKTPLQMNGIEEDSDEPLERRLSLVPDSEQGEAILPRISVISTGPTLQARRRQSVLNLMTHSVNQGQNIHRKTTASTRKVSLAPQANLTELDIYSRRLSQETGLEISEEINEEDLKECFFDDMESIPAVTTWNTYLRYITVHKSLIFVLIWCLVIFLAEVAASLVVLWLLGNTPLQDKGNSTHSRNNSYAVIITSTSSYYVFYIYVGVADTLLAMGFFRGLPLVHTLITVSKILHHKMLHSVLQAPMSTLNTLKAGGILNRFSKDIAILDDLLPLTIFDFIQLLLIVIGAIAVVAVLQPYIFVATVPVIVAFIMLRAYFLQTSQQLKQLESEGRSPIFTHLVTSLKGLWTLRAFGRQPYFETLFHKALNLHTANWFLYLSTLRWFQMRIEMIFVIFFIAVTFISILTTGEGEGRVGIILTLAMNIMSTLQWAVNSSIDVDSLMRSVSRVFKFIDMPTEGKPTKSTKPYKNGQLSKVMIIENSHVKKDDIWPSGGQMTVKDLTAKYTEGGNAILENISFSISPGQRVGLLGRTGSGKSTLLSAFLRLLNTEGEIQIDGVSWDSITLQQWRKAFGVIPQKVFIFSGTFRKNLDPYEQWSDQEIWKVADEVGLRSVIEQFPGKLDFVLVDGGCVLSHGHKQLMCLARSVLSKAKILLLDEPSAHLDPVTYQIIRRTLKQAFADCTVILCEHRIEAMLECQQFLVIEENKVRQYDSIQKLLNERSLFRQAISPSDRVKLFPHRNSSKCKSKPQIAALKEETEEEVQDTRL
# Only a part is listed here, and it is no random draw. The source made the active and inactive calls. The rule behind the calls is not given here.
# Molecular target: Cystic fibrosis transmembrane conductance regulator (Homo sapiens) (UniProt P13569)
# Assay: F508del-CFTR plasma membrane relocalization enhancers – imaging, HeLa, high-content microscopy, immunofluorescence, primary screen (AID 1224864);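 note: HeLa cells stably expressing F508del-CFTR stained with 3G11 antibody against NBD1; mean immunofluorescence in a thin cell-margin band taken as plasma membrane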
# Conditions: PM immunofluorescence imaging, 24 h, at 10 µM, active compounds read high, relative to vehicle wells set at 100
row,SMILES,plasma membrane CFTR intensity
1,CN(C(=O)Cc1ccc(Cl)c(Cl)c1)[C@@H]1CCCC[C@H]1N1CCCC1,inactive: 82%
